# Reference: patent publication EP0338372A2, “Solubilized pro-drugs” (AMERICAN CYANAMID COMPANY, priority 1988, dated 1989)
# How the values were obtained:
# [1] = test system: lymphocytic leukemia P388; assay: Lymphocytic leukemia P388 test; assay type: in vivo, BDF1 mice
# [2] = rat tail vein model for phlebitis reaction near the site of injection
# [3] = in vivo hydrolysis of the pro-drug in the rat
# L1210 leukemia cells = assay: Lymphocytic Leukemia L1210 test; assay type: in vivo, BDF1 mice
# melanotic melanoma B16 = assay: Melanotic Melanoma B16 test; assay type: in vivo, BDF1 mice
# [4] = hydrolysis / stability in water; settings: compared with in vivo hydrolysis
# [5] = Dose 50 mg/kg intraperitoneally on days 1, 5 and 9
# [6] = Dose 100 mg/kg intraperitoneally on days 1, 5 and 9
# [7] = Dose 200 mg/kg intraperitoneally on days 1, 5 and 9
# [8] = Dose 0.78 mg/kg intraperitoneally on days 1, 5 and 9
# [9] = Dose 1.56 mg/kg intraperitoneally on days 1, 5 and 9
# [10] = Dose 3.12 mg/kg intraperitoneally on days 1, 5 and 9
# [11] = Dose 6.25 mg/kg intraperitoneally on days 1, 5 and 9
# [12] = Dose 12.5 mg/kg intraperitoneally on days 1, 5 and 9
# [13] = Dose 25 mg/kg intraperitoneally on days 1, 5 and 9
structure (smiles),measurement,setting,value
O=P(Oc1ccccc1)(Oc1ccccc1)N1CCN=C1NN=Cc1c2ccccc2c(C=NNC2=NCCN2P(=O)(Oc2ccccc2)Oc2ccccc2)c2ccccc12,Median Survival,[1]; [5],13 days
same,T/C x 100 %,[1]; [5],130%
same,Median Survival,[1]; [6],15.5 days
same,T/C x 100 %,[1]; [6],155%
same,Median Survival,[1]; [7],16 days
same,T/C x 100 %,[1]; [7],160%
CCOP(=O)(OCC)N1CCN=C1NN=Cc1c2ccccc2c(C=NNC2=NCCN2P(=O)(OCC)OCC)c2ccccc12,Median Survival,[1]; [6],12 days
same,T/C x 100 %,[1]; [6],120%
O=P(O)(O)N1CCN=C1NN=Cc1c2ccccc2c(C=NNC2=NCCN2)c2ccccc12,precipitation in a rat tail-vein model,"[2]; rat, in vivo",no precipitation
same,in vivo hydrolysis of the pro-drug,[3],slowly hydrolyzes further to bisantrene
O=P(O)(O)N1CCN=C1NN=Cc1c2ccccc2c(C=NNC2=NCCN2P(=O)(O)O)c2ccccc12,Median Survival,L1210 leukemia cells; [8],10.7 days
same,T/C x 100 %,L1210 leukemia cells; [8],126%
same,Median Survival,L1210 leukemia cells; [9],11.5 days
same,T/C x 100 %,L1210 leukemia cells; [9],135%
same,Median Survival,L1210 leukemia cells; [10],12.2 days
same,T/C x 100 %,L1210 leukemia cells; [10],144%
same,Median Survival,L1210 leukemia cells; [11],13.2 days
same,T/C x 100 %,L1210 leukemia cells; [11],155%
same,Median Survival,L1210 leukemia cells; [12],13.3 days
same,T/C x 100 %,L1210 leukemia cells; [12],156%
same,Median Survival,L1210 leukemia cells; [13],17 days
same,T/C x 100 %,L1210 leukemia cells; [13],200%
same,phlebitis reaction near the site of injection,"[2]; 25 mg/kg intravenously, observations at 1, 5 and 9 days following the injection",No evidence of phlebitis
same,in vivo hydrolysis of the pro-drug,[3],"hydrolyzes rapidly to an intermediate form, the monophosphoramidic acid"
same,Median Survival,melanotic melanoma B16; [9],29 days
same,T/C x 100 %,melanotic melanoma B16; [9],126%
same,Median Survival,melanotic melanoma B16; [11],35.5 days
same,T/C x 100 %,melanotic melanoma B16; [11],154%
same,Median Survival,melanotic melanoma B16; [13],37.5 days
same,T/C x 100 %,melanotic melanoma B16; [13],163%
same,stability in water,[4],much more stable in water
